Molecular target: Tip60 (Homo sapiens, UniProt Q92993)
Test: Steady-state kinetic characterization of Tip60 inhibition
Assay type: biochemical
Conditions: Kis (slope inhibition constant)

Chains of the proteins cited; added tags and fusions are not shown.
UniProt Q92993, whole entry: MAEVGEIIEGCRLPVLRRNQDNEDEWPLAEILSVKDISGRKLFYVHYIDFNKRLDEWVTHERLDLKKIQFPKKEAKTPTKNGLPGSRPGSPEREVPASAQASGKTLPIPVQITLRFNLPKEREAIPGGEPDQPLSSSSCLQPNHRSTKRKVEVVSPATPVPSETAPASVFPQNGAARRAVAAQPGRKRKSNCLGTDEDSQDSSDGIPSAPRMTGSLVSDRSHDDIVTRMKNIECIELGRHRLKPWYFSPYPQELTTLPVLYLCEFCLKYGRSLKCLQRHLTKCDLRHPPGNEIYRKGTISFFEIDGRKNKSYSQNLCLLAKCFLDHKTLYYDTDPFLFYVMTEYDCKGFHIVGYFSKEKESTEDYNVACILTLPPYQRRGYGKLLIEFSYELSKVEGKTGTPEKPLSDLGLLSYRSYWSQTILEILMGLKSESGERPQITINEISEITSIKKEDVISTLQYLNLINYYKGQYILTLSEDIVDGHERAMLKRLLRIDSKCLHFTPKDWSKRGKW

Ki (varied Ac-CoA, 50 nM Tip60, 100 µM H4-20): 54 µM
Ki (varied H4-20, 25 nM Tip60, 2 µM Ac-CoA): > 660 µM
SMILES: CCCCCCCc1ccc(CCc2cccc(O)c2C(=O)O)cc1 [compound 20]

From publication PMC3399519 (European Journal of Medicinal Chemistry, 2011)
